Our source for the activity values is PubChem BioAssay AID1259318 (Sanford-Burnham Center for Chemical Genomics, 2017).

The chains behind the UniProt entries cited, without tags or fusion partners.
UniProt P20393, whole entry, looked up: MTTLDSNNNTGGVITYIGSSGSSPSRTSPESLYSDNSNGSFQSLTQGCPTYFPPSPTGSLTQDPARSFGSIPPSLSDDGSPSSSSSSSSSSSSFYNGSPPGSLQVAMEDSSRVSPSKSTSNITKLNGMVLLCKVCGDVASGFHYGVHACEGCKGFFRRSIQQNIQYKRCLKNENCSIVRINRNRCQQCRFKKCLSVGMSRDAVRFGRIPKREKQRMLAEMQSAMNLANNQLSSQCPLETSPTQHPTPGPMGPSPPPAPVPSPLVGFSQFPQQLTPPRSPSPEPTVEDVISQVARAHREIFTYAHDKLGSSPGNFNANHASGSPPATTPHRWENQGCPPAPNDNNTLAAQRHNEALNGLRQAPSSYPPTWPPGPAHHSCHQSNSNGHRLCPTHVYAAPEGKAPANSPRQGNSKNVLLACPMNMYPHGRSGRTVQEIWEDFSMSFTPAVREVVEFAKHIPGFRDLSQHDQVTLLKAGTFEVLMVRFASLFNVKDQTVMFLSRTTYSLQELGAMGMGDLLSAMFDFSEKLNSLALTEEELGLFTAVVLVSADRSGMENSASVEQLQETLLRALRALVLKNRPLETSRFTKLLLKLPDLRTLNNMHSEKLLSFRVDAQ

The list shows a part of the results, in another mix than the full data. Active and inactive are the calls of the source.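 Rule for the calls: active = activity above about 14% (limit read from the data; passing the limit was not always enough); inactive = the rest.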

This experiment deals with Nuclear receptor subfamily 1 group D member 1 (Homo sapiens) (UniProt P20393). Put plainly: Rev-erbα–DNA interaction modulation – biochemical, FITC-DNA, fluorescence polarization, uHTS, primary screen (AID 1259318).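 Note: 0% = DMSO wells with 35 nM protein and 100% = DMSO wells with 750 nM protein.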 The following applies: Rev-erbα–FITC-DNA binding, 90 min, at 10 µM, stronger effect = higher value. In general terms: Polarisation of emitted light reports the rotation of a fluorescent probe.
Regarding `NC(=O)Nc1ccc([As](=O)(O)O)cc1`, the activity is inactive: -1.17%.
